Test results taken from patent US6103709A (priority 1998, dated 2000).

Legend:
[1] = test system: human leukemia cell; conditions: cited from earlier work
[2] = test system: prostate cancer cells; conditions: cited from earlier work
[3] = test system: chloride channels in ROS 17/2.8 cells; assay: cells; conditions: read-out: concentration giving maximal promotion of anion currents
Experimental: In each case, at least a 3-min period was allowed after the addition of the analog to the bath for currents to reach a stable amplitude value. […] Anion currents were isolated from inward Ba^2+ currents after blockade of Ca^2+ channels with 100 μM Cd^2+.

Q: For `C=C1/C(=C\C=C2/CCC[C@]3(C)[C@@H]([C@H](C)CCCC(C)(C)O)CC[C@@H]23)C[C@@H](O)C[C@@H]1O` [Analog C, 1α,25-dihydroxyvitamin D3, reference compound], which “human leukemia cell proliferation / differentiation” value [1] is on record?
A: effective inhibitor of human leukemia cell proliferation and as well a stimulator of the cell differentiation

Q: What about the “prostate cancer cell proliferation / differentiation” value [2] of the same molecule?
A: inhibition of proliferation as well a selective differentiation

Q: What about the EC (maximal) [3] of the same molecule?
A: 0.0005 to 0.005 µM
